{
  "source": "paper PMC2980575",
  "about": "(Analytical biochemistry, 2010)",
  "target": "T1, HDAC8 (Homo sapiens, UniProt Q9BY41)",
  "T1 sequence (Q9BY41 1-377)": "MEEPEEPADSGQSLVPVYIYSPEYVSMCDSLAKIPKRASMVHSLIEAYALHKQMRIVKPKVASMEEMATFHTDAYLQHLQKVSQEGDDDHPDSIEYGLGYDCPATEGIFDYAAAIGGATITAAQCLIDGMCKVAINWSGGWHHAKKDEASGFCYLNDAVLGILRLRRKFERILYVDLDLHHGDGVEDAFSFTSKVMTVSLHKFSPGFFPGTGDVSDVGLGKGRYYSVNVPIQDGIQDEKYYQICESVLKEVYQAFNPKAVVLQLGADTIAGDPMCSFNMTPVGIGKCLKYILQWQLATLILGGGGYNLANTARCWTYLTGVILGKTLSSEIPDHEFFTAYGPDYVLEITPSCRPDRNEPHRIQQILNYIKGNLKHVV",
  "experiment": "Trypsin-coupled steady-state kinetic assay with Fluor de Lys substrate",
  "assay_type": "biochemical",
  "data": [
    {"smiles": "O=C(CCCCCCC(=O)Nc1ccccc1)NO", "note": "[SAHA, suberoylanilide hydroxamic acid]", "values": [
      {"measurement": "Ki", "value": "290 ± 40", "unit": "nM"}
    ]}
  ]
}
